Laboratory results from PubChem BioAssay AID1246 (Columbia University Molecular Screening Center, 2008).
Only a part is listed here, and it is no random draw. Some results for these compounds are left out of this collection, so the calls shown say nothing about other tests. Activity calls are given as the source filed them.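 The calls were made as follows: active = inhibition above the batch mean plus 3 SD, and confirmed as a hit on visual image review (cut at about 43% in these data); inconclusive = passes the inhibition cutoff but fails visual image review; inactive = the rest.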

Assay: E-selectin induction blockers in HUVEC – imaging, immunofluorescence, high content, primary screen (AID 1246);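 also: 0% = TNF-stimulated DMSO wells and 100% = unstimulated control wells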
Details: HUVEC TNFa-induced E-selectin immunofluorescence, at 2 µM, active compounds read high

Compound | inhibition
CCN1CCCC(OC(=O)C2(O)c3ccccc3C=Cc3ccccc32)C1 (stereo not drawn) | inactive: 15.2%
CC(C)N1C(=O)CC2(CCN(CCOC(=O)C(O)(c3ccccc3)c3ccccc3)CC2)C1=O | inactive: 10.4%
O=C(OC1CN2CCC1CC2)C(CO)(c1ccccc1)c1ccccc1 (stereo not drawn) | inactive: -16.1%
